Several values for one entry are separate records, joined by “and”; a condition that tells them apart may be missing. Identical values can stand only once. This is a selection; strong and weak results do not stand in their true shares.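 The endpoint reported here, percent growth, reads 100 for growth as untreated, 0 for no net growth and -100 for all cells dead.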 Activity calls are given as the source filed them. How the source made its calls: active means growth percent below 10; inactive means the rest.

Among the test systems are NCI/ADR-RES ovarian; T-47D breast; BT-549 breast; MDA-MB-435 melanoma; SW-620 colon; MCF7 breast; HCT-116 colon; HCC-2998 colon; KM12 colon.
What all share (test): NCI-60 one-dose screen, 48 h (100 = growth as untreated, 0 = no growth, -100 = all killed)
Conditions in all cases: 10 µM unless noted

Consider `CC(Cl)CN(CC(C)Cl)C(=O)OCC(N)C(=O)O` (stereo unspecified), for which the growth in the assay with NCI/ADR-RES ovarian is inactive: 105% and inactive: 39.5%; with T-47D breast, inactive: 97.6% and inactive: 109%; in the assay on BT-549 breast, inactive: 101%; with MDA-MB-435 melanoma it was inactive: 114% and inactive: 103%; in the assay on SW-620 colon it was inactive: 100% and inactive: 113%; in the assay with MCF7 breast it was inactive: 96.6% and inactive: 95.9%. Moreover, the growth is inactive: 101% and inactive: 94.9% with HCT-116 colon; inactive: 113% with HCC-2998 colon; inactive: 110% and inactive: 115% in the assay on KM12 colon.

Consider `CCN(CCCl)C(Cc1ccccc1)c1ccccc1` (stereo unspecified), for which the growth with NCI/ADR-RES ovarian is inactive: 107%; in the assay with T-47D breast it was inactive: 88.7%; in the assay on BT-549 breast it was inactive: 112%; in the assay on MDA-MB-435 melanoma it was inactive: 105%; with SW-620 colon it was inactive: 91.6%; in the assay on MCF7 breast, inactive: 98.9%. Also, the growth with HCT-116 colon is inactive: 102%; with HCC-2998 colon it was inactive: 103%; in the assay on KM12 colon it was inactive: 103%.

On to `CC1(C)NC(C)(C)C(Br)C(=O)C1Br` (stereo unspecified), for which the growth with NCI/ADR-RES ovarian was inactive: 109%; in the assay with T-47D breast, inactive: 105%; in the assay with BT-549 breast it was inactive: 109%; in the assay on MDA-MB-435 melanoma, inactive: 115%; in the assay on SW-620 colon, inactive: 112%; with MCF7 breast it was inactive: 100%. Besides, the growth was inactive: 99.1% with HCT-116 colon, inactive: 103% with HCC-2998 colon and inactive: 113% in the assay on KM12 colon.

As for `O=P1(N(CCCl)CCCl)Nc2ccccc2N1`, the growth was inactive: 122% with NCI/ADR-RES ovarian; inactive: 109% in the assay on T-47D breast; inactive: 116% with BT-549 breast; inactive: 106% with MDA-MB-435 melanoma; inactive: 117% with SW-620 colon; inactive: 106% in the assay on MCF7 breast. Further, the growth in the assay on HCT-116 colon is inactive: 119%; in the assay on HCC-2998 colon, inactive: 111%; in the assay with KM12 colon, inactive: 115%.

Regarding `CN1C(=O)N(C)P12(Cl)N(C)C(=O)N2C`, the growth in the assay with NCI/ADR-RES ovarian was inactive: 106%; in the assay on T-47D breast, inactive: 103%; with BT-549 breast, inactive: 110%; with MDA-MB-435 melanoma, inactive: 112%; in the assay on SW-620 colon it was inactive: 102%; with MCF7 breast it was inactive: 101%. In addition, the values for the growth with HCT-116 colon, with HCC-2998 colon and in the assay on KM12 colon were inactive: 105%, inactive: 105% and inactive: 109%, respectively.

Take `COc1cc(I)ccc1[As](=O)(O)O`: the growth is inactive: 140% in the assay on NCI/ADR-RES ovarian; inactive: 95.7% with T-47D breast; inactive: 123% in the assay with BT-549 breast; inactive: 103% in the assay with MDA-MB-435 melanoma; inactive: 132% in the assay with SW-620 colon; inactive: 95.7% in the assay on MCF7 breast. The figures for the growth in the assay with HCT-116 colon, with HCC-2998 colon and in the assay on KM12 colon were inactive: 98.4%, inactive: 120% and inactive: 115%, respectively.

Turning to `O=C(O)/C=C\c1cccc(N(CCCl)CCCl)c1`, the growth in the assay on NCI/ADR-RES ovarian was inactive: 109%; with T-47D breast, inactive: 99.3%; in the assay on BT-549 breast, inactive: 103%; in the assay on MDA-MB-435 melanoma, inactive: 114%; with SW-620 colon, inactive: 98.8%; in the assay with MCF7 breast, inactive: 86.7%. Further, the growth is inactive: 106% in the assay on HCT-116 colon, inactive: 107% in the assay on HCC-2998 colon and inactive: 120% with KM12 colon.

On to `O=c1ccc(Oc2ccc([N+](=O)[O-])cc2[N+](=O)[O-])nn1-c1ccc([N+](=O)[O-])cc1[N+](=O)[O-]`, for which the growth is inactive: 66.3% with NCI/ADR-RES ovarian; active: -36.8% in the assay on T-47D breast; inactive: 64.4% in the assay with BT-549 breast; inactive: 69.3% with MDA-MB-435 melanoma; active: -66.1% in the assay with SW-620 colon; active: -42% in the assay with MCF7 breast. Moreover, the growth with HCT-116 colon is active: -73.2%; in the assay with HCC-2998 colon it was inactive: 73.1%; in the assay on KM12 colon it was inactive: 88.7%.

Regarding `CCOP(=S)(OCC)OCC`, the growth is inactive: 106% in the assay with NCI/ADR-RES ovarian; inactive: 103% in the assay on T-47D breast; inactive: 100% in the assay on BT-549 breast; inactive: 106% with MDA-MB-435 melanoma; inactive: 106% in the assay on SW-620 colon; inactive: 91.5% with MCF7 breast. The values for the growth with HCT-116 colon, with HCC-2998 colon and in the assay with KM12 colon were inactive: 103%, inactive: 106% and inactive: 101%, respectively.

Turning to `CN(CCCl)CC1OC(O)C(O)C(O)C1O` (stereo unspecified), the growth with NCI/ADR-RES ovarian is inactive: 107%; in the assay with T-47D breast, inactive: 97.9%; with BT-549 breast, inactive: 101%; in the assay with MDA-MB-435 melanoma it was inactive: 100%; in the assay with SW-620 colon it was inactive: 103%; in the assay on MCF7 breast it was inactive: 99.6%. Also, the growth with HCT-116 colon was inactive: 98%; in the assay with HCC-2998 colon, inactive: 112%; in the assay on KM12 colon, inactive: 111%.

As to `ClCCNCc1ccccc1`, the growth in the assay on NCI/ADR-RES ovarian is inactive: 108%; in the assay with T-47D breast, inactive: 105%; in the assay on BT-549 breast, inactive: 114%; in the assay with MDA-MB-435 melanoma, inactive: 107%; in the assay with SW-620 colon, inactive: 101%; in the assay with MCF7 breast it was inactive: 94.7%. In addition, the growth is inactive: 108% with HCT-116 colon, inactive: 111% with HCC-2998 colon and inactive: 102% in the assay on KM12 colon.

As for `CN(C)P1(Cl)=NP(Cl)(N(C)C)=NP(Cl)(N(C)C)=N1` (stereo unspecified), the growth in the assay on NCI/ADR-RES ovarian is inactive: 111%; with T-47D breast, inactive: 83.4%; in the assay with BT-549 breast it was inactive: 90.2%; in the assay on MDA-MB-435 melanoma, inactive: 105%; with SW-620 colon it was inactive: 101%; in the assay on MCF7 breast it was inactive: 93.8%. Further, the growth with HCT-116 colon was inactive: 93.2%; in the assay on HCC-2998 colon it was inactive: 106%; in the assay with KM12 colon, inactive: 104%.

Regarding `ClCCNC(Cc1ccccc1)c1ccccc1` (stereo unspecified), the growth was inactive: 97.2% with NCI/ADR-RES ovarian; inactive: 75% in the assay on T-47D breast; inactive: 99.2% with BT-549 breast; inactive: 100% with MDA-MB-435 melanoma; inactive: 104% in the assay with SW-620 colon; inactive: 81.7% with MCF7 breast. For the same molecule, the growth with HCT-116 colon was inactive: 84.9%; in the assay on HCC-2998 colon, inactive: 97.1%; in the assay on KM12 colon, inactive: 95.7%.

Consider `[N-]=[N+]=NC(=O)c1cccc([N+](=O)[O-])c1`, for which the growth is inactive: 58.9% with NCI/ADR-RES ovarian; inactive: 45% in the assay with T-47D breast; inactive: 78.9% with BT-549 breast; inactive: 91.9% in the assay with MDA-MB-435 melanoma; inactive: 71.3% in the assay on SW-620 colon; inactive: 62.5% in the assay with MCF7 breast. The growth in the assay with HCT-116 colon was inactive: 36.9%; in the assay on HCC-2998 colon, inactive: 86.4%; in the assay with KM12 colon it was inactive: 45.9%.
